The chains behind the UniProt entries cited, without tags or fusion partners.
UniProt P35363, whole entry: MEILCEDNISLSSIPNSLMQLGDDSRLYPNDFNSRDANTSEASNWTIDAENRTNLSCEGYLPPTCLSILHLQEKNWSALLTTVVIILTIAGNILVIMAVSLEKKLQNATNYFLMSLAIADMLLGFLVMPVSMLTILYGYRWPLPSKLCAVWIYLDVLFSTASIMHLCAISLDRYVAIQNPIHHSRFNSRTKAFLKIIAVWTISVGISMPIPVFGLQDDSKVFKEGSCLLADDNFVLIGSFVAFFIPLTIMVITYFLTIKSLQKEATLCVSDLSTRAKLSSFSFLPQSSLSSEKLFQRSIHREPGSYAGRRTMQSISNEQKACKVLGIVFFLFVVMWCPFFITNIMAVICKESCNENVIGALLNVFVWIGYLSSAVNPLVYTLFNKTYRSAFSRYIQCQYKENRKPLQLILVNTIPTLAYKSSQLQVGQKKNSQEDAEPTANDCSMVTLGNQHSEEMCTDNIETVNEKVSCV

In publication PMC9191647 (2019):

Biological target: mouse 5-HT2A (m5-HT2A) (Mus musculus, UniProt P35363)
Details: percent 5-HT maximum response

NCCc1c[nH]c2ccc(O)cc12 [5-HT, serotonin]
Emax % 5-HT: 100 % 5-HT
